Usually Ki stands for the equilibrium dissociation constant of an inhibitor or competing ligand from its target.

Protein sequences, listed by entry. Tags and fused reporters are not part of them.
UniProt P27487, whole entry: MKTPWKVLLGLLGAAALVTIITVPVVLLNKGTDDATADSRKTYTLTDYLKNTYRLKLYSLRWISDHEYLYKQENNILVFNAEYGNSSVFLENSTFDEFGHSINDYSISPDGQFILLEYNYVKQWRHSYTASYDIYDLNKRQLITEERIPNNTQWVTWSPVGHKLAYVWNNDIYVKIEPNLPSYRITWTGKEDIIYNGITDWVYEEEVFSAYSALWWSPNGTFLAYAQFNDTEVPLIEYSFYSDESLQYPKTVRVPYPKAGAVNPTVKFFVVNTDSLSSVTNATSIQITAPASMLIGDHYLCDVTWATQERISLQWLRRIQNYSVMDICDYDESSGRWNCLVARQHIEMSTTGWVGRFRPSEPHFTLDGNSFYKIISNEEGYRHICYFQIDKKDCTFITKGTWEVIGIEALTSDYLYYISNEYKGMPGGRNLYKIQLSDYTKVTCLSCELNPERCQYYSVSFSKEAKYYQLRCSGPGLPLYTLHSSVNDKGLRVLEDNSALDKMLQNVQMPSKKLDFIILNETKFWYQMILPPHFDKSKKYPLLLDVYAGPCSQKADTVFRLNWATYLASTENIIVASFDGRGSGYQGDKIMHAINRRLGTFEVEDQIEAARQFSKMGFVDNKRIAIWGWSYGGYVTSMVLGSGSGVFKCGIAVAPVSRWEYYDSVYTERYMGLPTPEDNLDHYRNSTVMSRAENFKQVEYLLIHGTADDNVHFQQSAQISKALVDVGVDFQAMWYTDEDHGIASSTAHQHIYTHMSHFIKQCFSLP

The text below walks through data of patent US5939560A, “Inhibitors of DP-mediated processes, compositions and therapeutic methods thereof” (Ferring B.V., priority 1993, dated 1999).

The test addresses pure human DP-IV (Homo sapiens, UniProt P27487). The test can be described thus: Inhibition of pure human DP-IV in vitro, fluorescent substrate Ala-Pro-AFC, Ki from Dixon plots. The following applies: read-out: Ki against DP-IV, pH 7.8, substrate Ala-Pro-AFC.

For the molecule `N[C@@H]1CC=CC[C@H]1C(=O)N1CCCC1` (relative stereo), the Ki came to 7.6 µM.
